Data: patent publication US9751831B2, “Blood brain barrier-penetrating oximes for cholistenerases reactivation” (dated 2017)

Target: hAChE (Homo sapiens, UniProt P22303)
Test: Reactivation of OP (nerve agent model compound)-inhibited hAChE, modified Ellman's assay
Conditions: for Reactivation of Sp-GBC-inhibited ChEs, Relative activity [%], hAChE / Reactivation of Sp-GF-SMe-inhibited ChEs, Relative activity [%], hAChE: 100 μM oxime, relative to sample not treated with OP, 20 min per footnote (1 h); for Relative reactivation, AChE, Sp-GB / Relative reactivation, AChE, Sp-GF / Relative reactivation, AChE, Sp-GA/ETP: mean ± standard deviation
[1] = Table 4, Sp-GB (sarin model)-inhibited hAChE
[2] = Table 4, Sp-GF (cyclosarin model)-inhibited hAChE
[3] = Table 4, tabun model (Sp-GA)/Echothiophate-inhibited hAChE

| SMILES | Reactivation of Sp-GBC-inhibited ChEs, Relative activity [%], hAChE [%] | Reactivation of Sp-GF-SMe-inhibited ChEs, Relative activity [%], hAChE [%] | Relative reactivation, AChE, Sp-GB [1] | Relative reactivation, AChE, Sp-GF [2] | Relative reactivation, AChE, Sp-GA/ETP [3] | Relative reactivation, AChE, Sp-GA/ETP (Table 5, Sp-GA/ETP-inhibited hAChE) | Relative reactivation, AChE, Sp-GB (Table 5, Sp-GB-inhibited hAChE) | Relative reactivation, AChE, Sp-GF (Table 5, Sp-GF-inhibited hAChE) |
| --- | --- | --- | --- | --- | --- | --- | --- | --- |
| CN(C)C(C=NO)=Nc1ccccc1.Cl | 9 | 3 | 0.22 ± 0.01 | 0.07 ± 0.01 | 0.16 ± 0.04 | – | – | – |
| CC(C)CCN=C(C=NO)N(C)C.Cl | – | – | 0.49 ± 0.03 | 0.08 ± 0.01 | 0.24 ± 0.01 | – | – | – |
| Cl.ON=CC1=NCCN1Cc1ccccc1 | 29 | 32 | – | – | – | – | – | – |
| Cl.ON=CC1=NCCCN1Cc1ccc(Cl)cc1Cl | – | – | – | – | – | 0.29 ± 0.06 | 0.26 ± 0.06 | 0.21 ± 0.01 |
